The source of these data is patent US8575100B2, “Tc and Re labeled radioactive glycosylated octreotide derivatives” (Mallinckrodt LLC, priority 2001, dated 2013).

In series [1] the test system is AR42J-cells (SSTR2). The series can be described thus: Internalization of radioligands in AR42J cells. The note with it: 60 min incubation; ratio normalized to the reference [125I]TOC. The protocol:
The cells were incubated with the radioligand for up to 120 min (n=3). At each time point the activity in the supernatant, the surface-bound and the internalized activity were determined and normalized to the values of TOC. Externalization and recycling was studied after an incubation time of 120 min over 2 h. Specificity of ligand binding was studied in a competition experiment with […] Sandostatin.
Internalisation and externalisation experiments were performed using the sst2 expressing rat pancreatic tumor cell line AR42J. Free, surface bound and internalised radioactivity were determined after 10, 30, 60, 90 and 120 min. of incubation with the radioligands at 37° C. In the externalisation experiments allowing ligand recycling, the fraction of radioactivity released into the supernatant during 10, 30, 60, 90 and 120 min as well as the radioactivity remaining in the cells were determined. We also measured the activity released during 5 subsequent incubations (10, 20 and 3×30 min) with intermediate changes of the medium (limited recycling).
Coupling of glucose (Gluc) and maltotriose (Mtr) to N^α-Lys of N^ε-(Boc-His(Boc))Lys^0-Tyr^3-Lys^5(Dde)-octreotide (protected K(H)TOC) and final deprotection yielded Gluc- and Mtr-K(H)TOC. ^99mTc-labeling was carried out using [^99mTc(H2O)3(CO)3]^+. […] Biodistribution was evaluated in nude mice bearing AR42J tumors at 0.5 and 2 h p.i (n=4). […]

Series [2] has as its system AR42J tumor bearing nude mice. The series can be described thus: Biodistribution in AR42J tumor bearing nude mice. Type of series: in vivo. The protocol:
Biodistribution studies of the ^99mTc-labelled derivatives (30 and 120 min p.i.) were performed in AR42J-tumor bearing nude mice (n=3-4). Internalisation and externalisation experiments were carried out using the same cell line.
To establish tumor growth, subconfluent monolayer cells were treated with 1 mM EDTA, suspended, centrifuged and resuspended in RPMI 1640.
Nude mice (male and female, 6-8 weeks) were inoculated s.c. in the flank with 2.5-3×10^7 cells suspended in 100 μl of PBS (pH 7.4), were injected i.v. into the tail vein of nude mice bearing an AR42J tumor. The animals (n=3-4) were sacrificed 30 and 120 min p.i, and the organs of interest were dissected. The radioactivity was measured in weighted tissue samples using a gamma counter. Data are expressed in % iD/g tissue (mean±DS, n=3-4).

“Na-(1-deoxy-D-fructosyl)-Lys^0(Nε-His [^99mTc (H2O)(CO)3]+)-Tyr^3-octreotide [[^99mTc]Gluc-K^0(H)TOC]”: in series [1], the “surface availability (% surface-bound ligand/% free radioligand)” value was determined as 204 ± 54. In series [2] (2 h (120 min) p.i., n=4), the blood levels is 1.5±0.2 % ID/g and the tumor accumulation worked out at 12.2±1.0 % ID/g. Besides, in series [2] (2 h p.i., n = 3-4), the Tissue accumulation adrenals is 6.47 ± 1.46 % iD/g, the Tissue accumulation blood is recorded as 1.49 ± 0.18 % iD/g, the Tissue accumulation intestine came to 2.83 ± 0.28 % iD/g and the Tissue accumulation kidney worked out at 19.49 ± 2.22 % iD/g. In series [2] (2 h p.i., n = 3-4), this substance came in with a Tissue accumulation liver of 15.89 ± 2.70 % iD/g, a Tissue accumulation muscle of 0.22 ± 0.04 % iD/g, a Tissue accumulation pancreas of 6.43 ± 2.09 % iD/g and a Tissue accumulation stomach of 11.28 ± 2.74 % iD/g. This substance also came in with a Tissue accumulation tumor in series [2] (2 h p.i., n = 3-4) of 12.21 ± 0.96 % iD/g. Further, the T/kidney in series [2] (tumor to kidney ratio, 2 h p.i.) was determined as 0.63. The T/liver in series [2] (tumor to liver ratio, 2 h p.i.) was found to be 0.77.
For “[^125I]Tyr^3-octreotide [[^125I]TOC, reference compound]”, in series [1], the “surface availability (% surface-bound ligand/% free radioligand)” value was found to be 100.
